The results in this text go back to publication PMC7723054.

Holding throughout (test): FOREST: bead pull-down of RNA structure library v1, barcode microarray; U1A/LIN28A: 20 mM HEPES pH 7.5, 80 mM KCl, 20 mM NaCl, 10% glycerol, 2 mM DTT, 0.1 ug/uL BSA, 4 C; BG4/CIRBP/DHX36: 10 mM Tris-HCl pH 7.5, 100 mM KCl (or LiCl),; high values mean tight binding
One assay deals with T1, LIN28A (human?, UniProt Q9H9Z2 1-209).
T1 sequence: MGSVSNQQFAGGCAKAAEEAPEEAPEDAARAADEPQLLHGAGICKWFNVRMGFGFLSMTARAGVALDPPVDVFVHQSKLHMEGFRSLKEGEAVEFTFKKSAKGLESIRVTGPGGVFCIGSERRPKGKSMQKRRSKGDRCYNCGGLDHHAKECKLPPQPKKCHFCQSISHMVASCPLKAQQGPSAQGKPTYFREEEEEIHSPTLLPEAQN

A further assay addresses T2, CIRBP (Homo sapiens, UniProt Q14011 1-172).
T2 sequence: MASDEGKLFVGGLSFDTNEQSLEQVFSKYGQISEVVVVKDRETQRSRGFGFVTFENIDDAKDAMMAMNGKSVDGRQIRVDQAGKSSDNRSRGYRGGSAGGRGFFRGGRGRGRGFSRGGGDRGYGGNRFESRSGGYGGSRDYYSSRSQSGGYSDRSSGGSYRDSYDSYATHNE

Another assay deals with T3, DHX36 (Homo sapiens, UniProt Q9H2U1 1-1008).
T3 sequence: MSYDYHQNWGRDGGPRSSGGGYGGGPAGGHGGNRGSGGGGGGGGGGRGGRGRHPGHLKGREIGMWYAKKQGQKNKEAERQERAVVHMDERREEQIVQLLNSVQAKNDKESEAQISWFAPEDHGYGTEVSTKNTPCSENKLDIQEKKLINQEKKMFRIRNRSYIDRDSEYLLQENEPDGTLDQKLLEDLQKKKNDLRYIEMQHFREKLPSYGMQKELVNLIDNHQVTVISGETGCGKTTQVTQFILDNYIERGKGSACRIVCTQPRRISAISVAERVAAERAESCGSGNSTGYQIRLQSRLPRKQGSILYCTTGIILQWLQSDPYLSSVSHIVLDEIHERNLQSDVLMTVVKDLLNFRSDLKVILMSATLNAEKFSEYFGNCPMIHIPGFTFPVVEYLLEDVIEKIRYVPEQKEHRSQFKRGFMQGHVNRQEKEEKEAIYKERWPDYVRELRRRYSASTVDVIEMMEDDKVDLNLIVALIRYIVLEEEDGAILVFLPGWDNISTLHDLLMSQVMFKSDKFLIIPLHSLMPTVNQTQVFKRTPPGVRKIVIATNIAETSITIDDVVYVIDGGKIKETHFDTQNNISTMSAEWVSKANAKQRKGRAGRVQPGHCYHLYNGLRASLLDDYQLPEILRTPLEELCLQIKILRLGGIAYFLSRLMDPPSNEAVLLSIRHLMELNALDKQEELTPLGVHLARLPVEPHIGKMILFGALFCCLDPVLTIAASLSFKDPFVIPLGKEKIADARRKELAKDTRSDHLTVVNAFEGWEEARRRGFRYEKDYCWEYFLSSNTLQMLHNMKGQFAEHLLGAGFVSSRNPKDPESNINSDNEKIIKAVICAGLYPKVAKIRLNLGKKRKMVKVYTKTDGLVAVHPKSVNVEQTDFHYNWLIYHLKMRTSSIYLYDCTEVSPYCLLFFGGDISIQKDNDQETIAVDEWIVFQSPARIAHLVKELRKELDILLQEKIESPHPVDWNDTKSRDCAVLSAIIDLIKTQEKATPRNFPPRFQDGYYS

The list shows a part of the results.

B1: hsa-mir-1269a (structured_RNA)
RNA: GGGCAUCGUGAGCGGGAAUCUAAAAUUAGGUGUACGAAGUUUCAGCCCAAGUCUGACCACCUGAGGAAUGCCUGGGCUGAAGCUUCGUGCAC
On to B1, for which the binding signal with LIN28A is 0.122 z-score; in the assay with CIRBP it was -0.44 z-score; with DHX36, -0.359 z-score.

B2: hsa-mir-1287 (structured_RNA)
RNA: GGGACAGAGACGCAAGGACUACUCACAAGGUGUACGAAGUUUCAGCCGAGUCUGAGCCUUUAAAAGCCACUCUGCUGAAGCUUCGUGCAC
B2: the binding signal in the assay with LIN28A was 0.148 z-score; with CIRBP it was 0.791 z-score; in the assay with DHX36, -0.222 z-score.

B3: hsa-mir-516a-1_516a-2 (structured_RNA)
RNA: GGGAAUUCCUCAGUGUUAGAGUACGGGAGGUGUACGAAGUUUCAGCAGCACUUUCUGUUGUCUGAAAGAAAAGAAAGUGCUGCUGAAGCUUCGUGCAC
Turning to B3, the values for the binding signal in the assay with LIN28A, with CIRBP and with DHX36 were 0.163 z-score, -0.471 z-score and -1.05 z-score, respectively.

B4: hsa-mir-3685 (structured_RNA)
RNA: GGGAAAAUCAGGCAUUCAAGCCCGGCAAGGUGUACGAAGUUUCAGCGACUUGAGAUUAUAGUCGCUGAAGCUUCGUGCAC
B4: the binding signal with LIN28A was 0.155 z-score; in the assay with CIRBP it was 0.306 z-score; in the assay with DHX36, 0.141 z-score.

B5: hsa-mir-6070 (structured_RNA)
RNA: GGGACAAGGGGCUAGUAUCCACACCGGUGGUGUACGAAGUUUCAGCGGAGCUCUGUGCCUUUGGGUCCUGGUGAGCUCUGCUGAAGCUUCGUGCAC
As for B5, the binding signal with LIN28A was 0.121 z-score; with CIRBP, 0.551 z-score; in the assay with DHX36, 1.05 z-score.

B6: hsa-mir-4742 (structured_RNA)
RNA: GGGAACAGGUUCUCAACCUGGGUCCACUGGUGUACGAAGUUUCAGCCAGAUACUUUUUAAAAUUUGUUUGAGUUGAGGCAGAUUAAAUAUCUGGCUGAAGCUUCGUGCAC
As for B6, the binding signal in the assay with LIN28A is 0.167 z-score; with CIRBP it was -0.924 z-score; with DHX36 it was -0.244 z-score.

B7: hsa-mir-3142 (structured_RNA)
RNA: GGGACUACGAGUGAAAUGAAUACACGCGGGUGUACGAAGUUUCAGCCUGCUGAAUCUUCAGAAAGGGCUGAAGCUUCGUGCAC
Consider B7, for which the binding signal with LIN28A is 0.134 z-score; with CIRBP, 0.949 z-score; with DHX36, -0.0849 z-score.

B8: hsa-mir-378h (structured_RNA)
RNA: GGGAAUACGGUGUCAACGGAAAACCUCUGGUGUACGAAGUUUCAGCGGGAUGAGCCCUGGCUCUGUUUCCUAGGCUGAAGCUUCGUGCAC
B8: the binding signal in the assay with LIN28A was 0.169 z-score; with CIRBP it was 1.27 z-score; in the assay with DHX36 it was -0.0803 z-score.

B9: hsa-mir-556 (structured_RNA)
RNA: GGGAACAGAGGGAACUGCCUAAGGAACCGGUGUACGAAGUUUCAGCAUAUGAGCUUCAUUUAUACAUUUCAUAUGCUGAAGCUUCGUGCAC
Take B9: the binding signal is 0.138 z-score with LIN28A, 1.56 z-score in the assay with CIRBP and -0.0452 z-score in the assay with DHX36.

B10: hsa-mir-7847 (structured_RNA)
RNA: GGGACACUAAUGGCACGUGCGUUGCAGAGGUGUACGAAGUUUCAGCUAGGCCCACUGCUCAGUGGAGCGCUGAAGCUUCGUGCAC
As for B10, the binding signal in the assay with LIN28A is 0.166 z-score; in the assay with CIRBP, -0.994 z-score; with DHX36, -0.219 z-score.

B11: PARIS_ID36 (structured_RNA)
RNA: GGGAAGAAAGUUGACCGGACGCUCACACGGUGUACGAAGUUUCAGCGGCAAGAAUAUUCUCUCUGUUGCUGAAGCUUCGUGCAC
In the case of B11, the binding signal in the assay with LIN28A is 0.146 z-score; in the assay with CIRBP, 0.431 z-score; with DHX36, -0.164 z-score.

B12: hsa-mir-4326 (structured_RNA)
RNA: GGGACAUAAUGCUGCGUCGGAAUAAUCCGGUGUACGAAGUUUCAGCCAGACUCUGGCUGAAGCUUCGUGCAC
Take B12: the figures for the binding signal with LIN28A, with CIRBP and with DHX36 were 0.128 z-score, 0.137 z-score and 0.41 z-score, respectively.

B13: hsa-mir-513a-2_513a-1 (structured_RNA)
RNA: GGGAGAGACCACGGACUGUCAUUCAUAGGGUGUACGAAGUUUCAGCUCAUUUAUGUGAACUAAAAUAUAAAUUUGCUGAAGCUUCGUGCAC
Turning to B13, the binding signal in the assay with LIN28A is 0.152 z-score; with CIRBP, 0.821 z-score; with DHX36, -0.902 z-score.

B14: hsa-mir-200c (structured_RNA)
RNA: GGGAAAACACUCCUGUCGCGCCAAUUAAGGUGUACGAAGUUUCAGCGUUUGGGUGCGGUUGGGAGUCUCUAAUGCUGAAGCUUCGUGCAC
As to B14, the binding signal with LIN28A was found to be 0.142 z-score; with CIRBP it was 0.205 z-score; in the assay with DHX36, 0.529 z-score.

B15: hsa-mir-6510 (structured_RNA)
RNA: GGGACGGGUUAUUAACAUCGAUAGGAGGGGUGUACGAAGUUUCAGCGGAGUCCUCUAGACACCGCUGAAGCUUCGUGCAC
Take B15: the binding signal came to 0.126 z-score with LIN28A, 1.16 z-score with CIRBP and 0.0757 z-score with DHX36.

B16: hsa-mir-5705 (structured_RNA)
RNA: GGGACCAACCGUCAGUGUCGUAUUAAGCGGUGUACGAAGUUUCAGCAACACCCAUCCCAGGAUUGCUGAUGGGUGUUGCUGAAGCUUCGUGCAC
Take B16: the binding signal was 0.15 z-score with LIN28A, -0.0649 z-score with CIRBP and -0.536 z-score with DHX36.

B17: hsa-mir-4799 (structured_RNA)
RNA: GGGACAGGAAUGCAUAACGGACGGAAGCGGUGUACGAAGUUUCAGCCAGUCCUGAGAUGCAGGGACUGGCUGAAGCUUCGUGCAC
In the case of B17, the binding signal with LIN28A was 0.142 z-score; with CIRBP, -0.602 z-score; with DHX36, -1.56 z-score.

B18: hsa-mir-4679-1 (structured_RNA)
RNA: GGGAGCUGAGGCCAUCGGAUACAUCACAGGUGUACGAAGUUUCAGCUGCUUUGUUAGAAACAAAAAGCAGCUGAAGCUUCGUGCAC
On to B18, for which the binding signal in the assay with LIN28A is 0.135 z-score; with CIRBP, 0.193 z-score; with DHX36, 0.765 z-score.

B19: hsa-mir-8056 (structured_RNA)
RNA: GGGAAGGGAGUCAUCCCUAAGACAGCCAGGUGUACGAAGUUUCAGCUAGGAGCUGUGCCUCCUGGCCUAUUCCUGUUCGUGGCUGAAGCUUCGUGCAC
On to B19, for which the binding signal is 0.15 z-score with LIN28A, -0.952 z-score with CIRBP and 0.321 z-score with DHX36.

B20: hsa-mir-3184 (structured_RNA)
RNA: GGGAACACGUUUAGGCAACCACAUCAAAGGUGUACGAAGUUUCAGCCUUUUGGAAAAUAGAAAAGGCUGAAGCUUCGUGCAC
As for B20, the results for the binding signal in the assay with LIN28A, with CIRBP and with DHX36 were 0.124 z-score, -1.17 z-score and -0.221 z-score, respectively.

B21: hsa-mir-4297 (structured_RNA)
RNA: GGGAAAAUCCGUCCGGGGAUGGUCUCUCGGUGUACGAAGUUUCAGCUGUGCCUGCCUUCGAAGUGCACGGCAGGGCUGAAGCUUCGUGCAC
Regarding B21, the binding signal was 0.148 z-score with LIN28A, 0.344 z-score with CIRBP and -0.44 z-score with DHX36.

B22: hsa-mir-4795 (structured_RNA)
RNA: GGGAGCCAUUGGAUCUACCAACUGUCGUGGUGUACGAAGUUUCAGCAUAUUGACACUAUAACAAUAAUGUCAAUAUGCUGAAGCUUCGUGCAC
On to B22, for which the binding signal with LIN28A is 0.122 z-score; in the assay with CIRBP it was -0.708 z-score; with DHX36, 1.38 z-score.

B23: hsa-mir-548aq (structured_RNA)
RNA: GGGAACGUCAAAAGGAUGCUCGUUCCGCGGUGUACGAAGUUUCAGCUUUGCCAUUACUUUCAGUGGCAAAGCUGAAGCUUCGUGCAC
As for B23, the binding signal with LIN28A is 0.124 z-score; in the assay with CIRBP, 0.395 z-score; in the assay with DHX36, -0.0186 z-score.

B24: NEAT1_ParasoR_ID16 (structured_RNA)
RNA: GGGAAUUCGCGGUAUGACACAACUAUCGGGUGUACGAAGUUUCAGCCACCCAAAGGGGUAAUUGUCCUACUGGUGGCUGAAGCUUCGUGCAC
Take B24: the binding signal with LIN28A is 0.119 z-score; in the assay with CIRBP it was 0.343 z-score; with DHX36, -0.0473 z-score.

B25: hsa-mir-4502 (structured_RNA)
RNA: GGGAAAGACUAGCCGUACGUAUCCAGUCGGUGUACGAAGUUUCAGCCUUUUUGCUGAUGGAGGGUCUUGCCUCCAUGGGGAUGGCUGGCUGAAGCUUCGUGCAC
In the case of B25, the binding signal with LIN28A came out at 0.134 z-score; in the assay with CIRBP, 0.178 z-score; with DHX36, 0.103 z-score.

B26: hsa-mir-583 (structured_RNA)
RNA: GGGAAGACGUGGUCCGCUUCUCUAUAGCGGUGUACGAAGUUUCAGCUUACUGCAGGGAUCUUAGCAGUACGCUGAAGCUUCGUGCAC
Take B26: the binding signal in the assay with LIN28A is 0.135 z-score; with CIRBP, -0.29 z-score; in the assay with DHX36, -1 z-score.
